Experiment in all cases: competition with [125I]-NDP-alpha-MSH, CHO-K1 cell membranes
Assay [1] has as its target human melanocortin-1 receptor (human) (UniProt Q01726).
For assay [2], the target named is human melanocortin-3 receptor (human) (UniProt P41968).
Assay [3] deals with human melanocortin-4 receptor (human) (UniProt P32245).
Assay [4] has as its target human melanocortin-5 receptor (human) (UniProt P33032).

Sequences of proteins named here, by UniProt entry; tags and fusion partners are left off. A change or cut given only in a name is not applied to a line headed by its entry.
UniProt Q01726: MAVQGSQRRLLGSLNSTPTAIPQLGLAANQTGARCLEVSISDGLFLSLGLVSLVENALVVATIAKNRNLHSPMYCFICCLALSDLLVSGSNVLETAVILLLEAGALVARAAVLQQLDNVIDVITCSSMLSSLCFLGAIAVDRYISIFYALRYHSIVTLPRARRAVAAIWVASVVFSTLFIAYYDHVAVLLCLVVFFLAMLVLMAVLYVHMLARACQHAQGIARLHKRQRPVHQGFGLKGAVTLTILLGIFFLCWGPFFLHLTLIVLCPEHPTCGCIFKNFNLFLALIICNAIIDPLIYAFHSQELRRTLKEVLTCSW
UniProt P41968: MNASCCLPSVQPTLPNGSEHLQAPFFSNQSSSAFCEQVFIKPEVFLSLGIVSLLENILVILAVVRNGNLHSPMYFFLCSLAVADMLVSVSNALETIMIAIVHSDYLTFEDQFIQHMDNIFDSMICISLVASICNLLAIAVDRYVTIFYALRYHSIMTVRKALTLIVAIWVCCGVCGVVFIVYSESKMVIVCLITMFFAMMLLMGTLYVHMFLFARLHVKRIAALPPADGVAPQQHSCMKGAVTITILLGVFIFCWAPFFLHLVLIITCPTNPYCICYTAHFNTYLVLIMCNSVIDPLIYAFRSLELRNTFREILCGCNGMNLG
UniProt P32245, whole entry: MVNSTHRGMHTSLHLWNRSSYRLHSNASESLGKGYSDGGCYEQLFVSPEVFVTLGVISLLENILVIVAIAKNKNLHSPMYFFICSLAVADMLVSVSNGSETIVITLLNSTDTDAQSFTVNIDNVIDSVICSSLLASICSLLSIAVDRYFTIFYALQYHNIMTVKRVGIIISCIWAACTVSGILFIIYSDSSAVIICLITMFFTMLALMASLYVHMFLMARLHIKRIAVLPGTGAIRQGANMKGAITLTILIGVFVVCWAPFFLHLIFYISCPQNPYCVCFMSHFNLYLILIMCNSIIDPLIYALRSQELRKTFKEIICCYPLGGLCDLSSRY
UniProt P33032: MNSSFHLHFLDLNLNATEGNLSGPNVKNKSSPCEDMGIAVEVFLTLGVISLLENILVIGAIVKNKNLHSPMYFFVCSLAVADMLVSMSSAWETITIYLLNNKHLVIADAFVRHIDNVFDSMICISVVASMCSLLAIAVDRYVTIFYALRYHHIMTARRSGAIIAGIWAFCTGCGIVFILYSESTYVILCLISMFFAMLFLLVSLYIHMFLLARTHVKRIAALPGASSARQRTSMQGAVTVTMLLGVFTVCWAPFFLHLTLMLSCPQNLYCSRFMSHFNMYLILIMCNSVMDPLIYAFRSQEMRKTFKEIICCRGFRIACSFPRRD

pKi: −log10 of the molar value.

Regarding “Hydantoin(C(O)-(Gly-Gly))-cyclo(Cys-D-Ala-His-D-Phe-Arg-Trp-Pen)-NH2 (peptide)”, the pKi in assay [1] is 6.90; in assay [2] it was 6.09; in assay [3] it was 7.98; in assay [4], 6.42.
As for “Hydantoin(C(O)-(Nle-Gly))-cyclo(Cys-D-Ala-His-D-Phe-Arg-Trp-Pen)-NH2 (peptide)”, in assay [2], the pKi was 7.41.
In assay [4], “cyclo[Hydantoin(C(O)-(Asp-Apc))-D-2-Nal-Arg-Trp-Lys]-NH2 (peptide)” gave a pKi of 5.96.
The same measure, in the same setting: in the case of “cyclo[Hydantoin(C(O)-(Asp-A5c))-D-2-Nal-Arg-Trp-Lys]-NH2 (peptide)” it was 5.96.

Values taken from patent US20210163536A1.
